Tested on: Melanoma C8161 cells
Test: Inhibition of human melanoma cell xenograft growth
Format: in vivo
Conditions: C8161 xenograft in nude mice; 7.5 mg/kg p.o. gavage every day for 21 days; P<0.01
Protocol: Mice were treated every day for 21 days, and tumor sizes were measured twice weekly with a Vernier caliper.

In the case of Nc1nc2ccc(OC(F)(F)F)cc2s1 [riluzole], the “Tumor volume vs untreated or vehicle-treated controls” value is reported as “significant reduction in tumor volume”.

— patent US20210228549A1 (Biohaven Therapeutics Ltd., priority 2015, published 2021)
